In ChEMBL document CHEMBL1137289, “Structure-activity relationships of novel antibacterial translation inhibitors: 3,5-diamino-piperidinyl triazines” (Bioorg Med Chem Lett, 2006):

Key:
Escherichia coli = conditions: ATCC 25922
Pseudomonas aeruginosa = test: Antibacterial activity against Pseudomonas aeruginosa ATCC 27853; type: functional
Staphylococcus aureus = conditions: ATCC 25923

## GENTAMICIN
Escherichia coli
  MIC: < 0.5 µg/mL
Pseudomonas aeruginosa
  MIC: 0.5 µg/mL
Staphylococcus aureus
  MIC: < 0.5 µg/mL
